{"source": "paper PMC4835042", "about": "(Bioorganic & medicinal chemistry letters, 2015)", "tested_on": "amphetamine-induced hyperlocomotion", "conditions": "100 mg/kg p.o., rat"}
{"smiles": "O=C1c2cc(COc3ccccc3)nn2CCN1c1ccc(F)cn1", "note": "[4k]", "values": [{"measurement": "reversal of amphetamine-induced hyperlocomotion at 100 mg/kg", "value": "full reversal"}]}
